In US6632977B2 (priority 1996, dated 2003):
Like-named read-outs stand apart in the source and are kept apart here. Only a part of the results on these compounds is given; other tests are left out.

Chains of the proteins cited; added tags and fusions are not shown.
UniProt P33534, whole entry: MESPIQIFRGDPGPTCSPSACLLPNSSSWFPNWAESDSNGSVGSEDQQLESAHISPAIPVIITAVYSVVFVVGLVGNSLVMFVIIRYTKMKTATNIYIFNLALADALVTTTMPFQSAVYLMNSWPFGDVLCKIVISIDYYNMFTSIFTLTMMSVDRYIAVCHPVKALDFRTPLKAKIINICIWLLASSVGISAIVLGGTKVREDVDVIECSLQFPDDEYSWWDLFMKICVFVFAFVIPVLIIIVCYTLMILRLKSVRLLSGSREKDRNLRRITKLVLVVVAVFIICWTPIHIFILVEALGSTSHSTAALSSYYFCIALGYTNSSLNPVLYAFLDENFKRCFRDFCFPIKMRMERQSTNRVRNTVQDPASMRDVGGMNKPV

Key:
κ receptor [1] = test: Saturation binding of [3H]CI977 to whole brain membrane proteins (Scatchard); details: kappa receptor gene line, homozygous −/−
κ receptor [2] = biological target: T1, κ receptor (Mus musculus, UniProt P33534); test: as above
κ receptor [3] = biological target: T1, κ receptor; test: Autoradiography of brain sections labelled with [3H]CI977; details: heterozygous kappa mice

## (−)-5b,7b,8a)-3,4-dichloro-N-methyl-N-[7-(1-pyrrolidinyl)-1-oxaspiro[4,5]-dec-8-yl]benzo[b]furan-4-acetamide
κ receptor [1]
  CI977 Kd: undetect-
κ receptor [2]; [3H]CI977, μ receptor gene line, heterozygous +/−
  Kd: 0.198 nM
κ receptor [2]; [3H]CI977, μ receptor gene line, homozygous −/−
  Kd: 0.211 nM
κ receptor [2]; [3H]CI977, μ receptor gene line, wild +/+
  Kd: 0.214 nM
κ receptor [2]; brains of +/+, +/− and −/− MOR mice
  binding curves (Scatchard) compared between genotypes: superimposable
κ receptor [2]; kappa receptor gene line, heterozygous +/−
  CI977 Bmax: 0.020 pmole/mg proteins
κ receptor [2]; kappa receptor gene line, wild +/+
  CI977 Bmax: 0.040 pmole/mg proteins
κ receptor [2]; read-out: CI977 Kd, kappa receptor gene line, heterozygous +/−
  Kd: 0.173 nM
κ receptor [2]; read-out: CI977 Kd, kappa receptor gene line, wild +/+
  Kd: 0.137 nM
κ receptor [2]; whole brain homogenates, heterozygous kappa animals
  reduction of the binding sites of the kappa receptor: 50%
κ receptor [3]
  reduction of binding sites of the kappa receptor in brain sections: 50%
